Target: Adenosine receptor A3 (Rattus norvegicus, UniProt P28647)
Experiment: Displacement of [125I]- AB-MECA from rat adenosine A3 receptor expressed in CHO cells
Type: cell-based

Sequences of proteins named here, by UniProt entry; tags and fusion partners are left off.
UniProt P28647, whole entry: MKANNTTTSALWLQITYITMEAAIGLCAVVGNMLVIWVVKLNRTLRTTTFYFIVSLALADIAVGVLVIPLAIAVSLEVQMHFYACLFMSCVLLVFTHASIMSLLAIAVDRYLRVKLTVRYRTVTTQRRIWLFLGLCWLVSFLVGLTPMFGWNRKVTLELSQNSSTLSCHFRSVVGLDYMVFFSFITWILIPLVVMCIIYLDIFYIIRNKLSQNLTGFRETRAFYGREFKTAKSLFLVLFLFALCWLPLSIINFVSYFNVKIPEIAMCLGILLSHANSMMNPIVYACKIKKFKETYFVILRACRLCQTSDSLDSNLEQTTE

## OC[C@H]1O[C@@H](n2cnc3c(NC4CCCC4)ncnc32)[C@H](O)[C@@H]1O [N6-CYCLOPENTYLADENOSINE]
  Ki: 274 nM

— ChEMBL document CHEMBL1133730 (J Med Chem, 2000)
